{
  "source": "paper PMC4452637",
  "about": "“Identification of positron emission tomography (PET) tracer candidates by prediction of the target-bound fraction in the brain” (EJNMMI Research, 2014)",
  "key": {"[1]": {"design": "method as in ref 10 (a number printed in a supplementary file, which may have a reference list of its own: not looked up in the article's list)", "conditions": "unbound fraction in homogenized brain tissue, reported; cited from earlier work"}, "[2]": {"assay": "Unbound fraction in brain homogenate (fu,brain); Vu,brain calculated from it with pH-partition model", "conditions": "calculated from reported fu,brain and tracer pKa with pH-partition model (tracers with fu,brain tabulated, footnote h of Table S1)"}, "SERT": {"test_system": "SERT", "assay": "PET imaging of specific target binding (BPND, tracer functionality)", "conditions": "in vivo"}, "GABA": {"biological_target": "GABA", "design": "method as in ref 33, 74 (Additional file 1)", "conditions": "literature value; 74 (Additional file 1); cited from earlier work"}},
  "data": [
    {"smiles": "CC[11CH2]N1CCO[C@@H]2c3cc(O)ccc3CCC21", "note": "(some centres unmarked) [[^11C]PHNO]", "values": [
      {"measurement": "fu,brain", "setting": "[1]", "result": 0.21},
      {"measurement": "V u,brain", "setting": "[2]", "result": 11, "unit": "mL/g brain"}
    ]},
    {"smiles": "[18F]c1ccc([C@@H]2CCNC[C@H]2COc2ccc3c(c2)OCO3)cc1", "note": "[[^18 F]Paroxetine]", "values": [
      {"measurement": "BP ND", "setting": "SERT", "result": 0.1}
    ]},
    {"smiles": "CN1C(=O)CN=C(c2ccccc2)c2cc(Cl)ccc21", "note": "[[^11C]Diazepam]", "values": [
      {"measurement": "Kd", "setting": "GABA", "result": 7, "unit": "nM"}
    ]},
    {"smiles": "[11CH3]NC(=O)c1ccc(Oc2ccc3c(c2)CCN(C2CCC2)CC3)nc1", "note": "[[^11C]GSK189254A]", "values": [
      {"measurement": "V u,brain", "setting": "[2]", "result": 8.5, "unit": "mL/g brain"}
    ]}
  ]
}
